Molecular target: human TRPV1 (Homo sapiens, UniProt Q8NER1)
Experiment: cell-based fluorescence assay of membrane depolarization by readily soluble drugs in HEK293 cells
Parameters: expressed in transfected cells; host or cells: HEK293 cells
Details: 100 μM drug; HEK293 untransfected (Parental), human TRPA1 or human TRPV1 transfected; FIG. 1
Description: A cell-based fluorescence assay was performed using HEK293 cells to determine
TRPV1 selectivity of readily soluble drugs. […] Parental cells and TRPA1 cells served as negative controls. All cells were incubated with 100 μM of readily soluble drugs. Cell membrane depolarization was measured in relative fluorescence units (RFU) through a coupled fluorescence emission scheme.

Sequences of proteins named here, by UniProt entry; tags and fusion partners are left off.
UniProt Q8NER1, whole entry: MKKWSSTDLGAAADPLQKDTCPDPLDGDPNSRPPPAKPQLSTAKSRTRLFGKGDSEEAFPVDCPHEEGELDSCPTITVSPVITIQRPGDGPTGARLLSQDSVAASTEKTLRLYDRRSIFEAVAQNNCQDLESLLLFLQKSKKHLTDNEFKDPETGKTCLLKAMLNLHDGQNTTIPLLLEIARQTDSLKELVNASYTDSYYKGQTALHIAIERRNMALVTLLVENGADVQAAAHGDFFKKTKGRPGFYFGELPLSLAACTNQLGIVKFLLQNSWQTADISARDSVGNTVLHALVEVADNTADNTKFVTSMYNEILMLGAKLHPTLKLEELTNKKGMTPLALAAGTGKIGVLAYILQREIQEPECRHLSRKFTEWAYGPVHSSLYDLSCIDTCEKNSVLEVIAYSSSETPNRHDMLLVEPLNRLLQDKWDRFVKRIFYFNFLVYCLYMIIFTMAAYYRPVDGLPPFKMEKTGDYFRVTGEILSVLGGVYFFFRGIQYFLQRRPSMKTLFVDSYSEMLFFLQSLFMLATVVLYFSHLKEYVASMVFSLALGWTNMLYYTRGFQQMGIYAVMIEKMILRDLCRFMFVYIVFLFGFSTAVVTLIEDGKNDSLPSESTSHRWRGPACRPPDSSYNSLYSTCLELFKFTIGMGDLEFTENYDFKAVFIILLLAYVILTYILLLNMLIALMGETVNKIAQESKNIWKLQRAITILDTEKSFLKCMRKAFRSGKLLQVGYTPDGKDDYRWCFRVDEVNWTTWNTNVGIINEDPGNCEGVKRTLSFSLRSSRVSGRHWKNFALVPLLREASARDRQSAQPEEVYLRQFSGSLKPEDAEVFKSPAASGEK

SMILES: COc1ccc2c(c1)[C@]13CCCC[C@@H]1[C@H](C2)N(C)CC3 [dextromethorphan]
- cell membrane depolarization (RFU) in TRPV1 cells compared to Parental and TRPA1 cells: greater membrane depolarization in TRPV1 cells

Reference: patent publication US20080153845A1, “TRPV1 ANTAGONISTS AND USES THEREOF” (REDPOINT BIO CORPORATION, priority 2006, published 2008)
